By pIC50 is commonly meant −log10 of the IC50, conventionally taken in molar units. A lower pIC50 goes with a high IC50.

For this assay, the system named is PDE4 isolated from human liver tissue. Briefly: Inhibition of cAMP specific PDE4, two-step radioisotope procedure. It is filed as biochemical. On the procedure: PDE5 and PDE4 were isolated from human platelets and liver tissue using a Pharmacia FPLC system and Mono Q column. The cyclic nucleotide PDE5/PDE4 activities in FPLC fractions were determined using a modification of the two-step radioisotope procedure ([^3H]GMP/[^3H]AMP).

SMILES strings stand for the structures. pIC50: −log10 of the molar value.

On to `COc1ccc(Cc2nccc3cc(OC)c(OC)cc23)cc1OC` [Papaverine, papaverine], for which the negative-log IC50 (pIC50) is 5.51.

Source of the values: US6916845B2, “Method for prevention and treatment of male and female sexual dysfunction” (priority 1999, dated 2005).
